Results published in patent US20200064333A1, “ECM COMPOSITION, TUMOR MICROENVIRONMENT PLATFORM AND METHODS THEREOF” (MITRA RXDX INDIA PRIVATE LIMITED, priority 2011, published 2020).

What was measured:
[1] = system: Glioblastoma, Ca-Ovary, Ca-Breast, Ca-Oesophagus, Ca-Pancreas, Ca-Stomach; experiment: Clinical outcome of patients (PETCT or CT), other solid cancers; assay type: in vivo, human; settings: evaluated at the end of 6-8 months by PETCT or CT
[2] = system: HNSCC patient tumors grown in immunocompromised mice; experiment: Therapeutic efficacy in human tumor xenografts (HTX) of SCID/nude mice; assay type: in vivo; settings: three times a week for about 23 days, vs normal saline, p<0.001 (FIG. 9(g))
[3] = system: stage III/IV colon cancer; settings: cited from earlier work
tumor explants = experiment: Explant cell viability (MTT / WST); settings: HNSCC biopsy explants, three days, vs DMSO control, n=20, p<0.001 (FIG. 9(e))

Cetuximab
Clinical readout RECIST ([1]; CRC patients): 2
Clinical readout RECIST ([1]; Ca-Breast patients): 3
tumor growth in vivo (tumor volume) [2]: tumor growth inhibition
patient respond clinically [3]: 10-30%
cell viability by WST (tumor explants): inhibition of cell viability
